# Binding of CDR-mutated scFvs to a peptide of the spike HR2 region

Reference: Li et al. 2023, doi:10.1038/s41467-023-39022-2. File: FLAb, binding data.

All variants were tested on one target, the spike HR2 peptide PDVDLGDISGINAS (SARS-CoV-2).

The variants keep the light chain, the linker and the frameworks of Ab-14 (scFv order VH, a (GGGGS)3 linker, VL).
VH: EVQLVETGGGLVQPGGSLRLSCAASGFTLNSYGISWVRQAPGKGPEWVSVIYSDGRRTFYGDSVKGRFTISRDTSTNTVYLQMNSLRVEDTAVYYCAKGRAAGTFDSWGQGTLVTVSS
VL: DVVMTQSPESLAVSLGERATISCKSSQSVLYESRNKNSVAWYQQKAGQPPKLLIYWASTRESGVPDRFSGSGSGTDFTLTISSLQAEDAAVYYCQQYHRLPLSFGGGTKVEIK

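The starting antibody came from a phage panning campaign against this peptide. The variants were designed computationally from a first round of random CDR variants and then made and measured. Several design methods are mixed in this list. AlphaSeq pools MATa yeast showing the antibodies with MATalpha yeast showing the peptide. Pairs that bind mate more often; barcode pairs of the diploids are counted by sequencing. Scores were corrected for input abundance and mapped to Kd with protein pairs of known affinity run in the same pool. There are six technical replicates.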

Substitutions are numbered in sequence along the VH above, starting at 1 (not Kabat).
Variants here have at most six changes.
The Kd shown is the geometric mean over detected replicates; a lower Kd is a better binder.
"nd" means that the variant was in the library but no mating with the target was seen in any replicate; the authors take this as a sign of poor binding, and no number exists.
The range of this assay differs from that of the first round, and the authors advise against merging the two.
Three control strains display no target. For all heavy chain designs, 1% of the pairings with them gave a signal, with a median of 120 nM and one signal in twenty below 7.0 nM, so weak values seen in few replicates may be background.
In the paper, a design with two or fewer of six values counts as a poor binder.
The parent sequence was in this pool as ten entries: three were never detected, three once, and four in most replicates, with averages from 2.2 nM to 240 nM.

* T28N/S63Q/R100N = 23 nM (5 of 6 replicates)
* T28E/A101M/T104S/S107T = nd (0 of 6 replicates)
* S53A/R100Q/S107M = 1.1 nM (6 of 6 replicates)
* T28S/R56M/G61A/A101T = 40 nM (6 of 6 replicates)
* L29R/G99W = 14 nM (1 of 6 replicates)
* R56C/G61I/R100N = 25 nM (3 of 6 replicates)
* N30E/G61S/R100Q/A101G = 1.9 µM (2 of 6 replicates)
* T28D/I34V/G99W/T104A/D106N = 19 µM (1 of 6 replicates)
* F59A/G61H/R100M/D106H = nd (0 of 6 replicates)
* S31D/I34V/G61I/S107Q = 13 nM (4 of 6 replicates)
* N30D/S31Q/G61S/A101Q = 430 pM (6 of 6 replicates)
* F59A/S63Q = 17 nM (5 of 6 replicates)
* S31D/T58K = 6.0 nM (6 of 6 replicates)
* F27Y/T28S/S31E = nd (0 of 6 replicates)
* T28N/R56E/V64D/D106F = nd (0 of 6 replicates)
* S31E/Y60T/G61T/A101F/S107T = 14 nM (5 of 6 replicates)
* T28D/L29M/R100E/A101N = 39 nM (6 of 6 replicates)
* T28W/S31D/S53A/R100Q = 4.3 nM (6 of 6 replicates)
* T28H/R56V/F59M/A101S/S107C = nd (0 of 6 replicates)
* T28S/S63D/R100S/A101E = 610 pM (6 of 6 replicates)
* N30E/S53A/S63R/R100Q/S107V = nd (0 of 6 replicates)
* G61S/R100S/A102G = 69 nM (6 of 6 replicates)
* T28D/G61A/A101K = nd (0 of 6 replicates)
* T28D/G61Q/R100K/S107T = 1.4 nM (5 of 6 replicates)
* S31E/G61T/A101F/S107V = 560 pM (1 of 6 replicates)
* R56E/G61A/G103A = nd (0 of 6 replicates)
* S53A/F105N/D106K/S107K = nd (0 of 6 replicates)
* S31Q/G103A = nd (0 of 6 replicates)
* T28E/R100V/A101K/S107T = 9.4 nM (6 of 6 replicates)
* T28D/R100E/S107K = 5.2 nM (6 of 6 replicates)
* G26N/R100K = 990 pM (6 of 6 replicates)
* S31N/R56Q/K65A/G103V = 17 nM (1 of 6 replicates)
* T28D/S31E/S53A/G61S/R100T/A101V = 340 pM (6 of 6 replicates)
* G26H/T28N/G61A/A101T = 2.4 nM (6 of 6 replicates)
* T28P/S31D/A101T = 2.8 nM (6 of 6 replicates)
* T28W/F59A/A101Q = 19 nM (1 of 6 replicates)
* T28A/L29I/S31K/S53A/G99W/S107L = nd (0 of 6 replicates)
* S31D/R56Y/S63Q = 33 nM (2 of 6 replicates)
* S31Q/R56Q/G61S/D106T = 19 nM (2 of 6 replicates)
* S31E/F59S = 830 pM (6 of 6 replicates)
* S53A/G55L/G103L/F105N/D106K/S107M = nd (0 of 6 replicates)
* T28N/G61A/S63H/R100Q = 310 nM (4 of 6 replicates)
* S31E/G61T/A101T/D106V = 67 nM (2 of 6 replicates)

6 of these entries, quoted again:

* T28H/R56V/F59M/A101S/S107C = nd (0 of 6 replicates)
* L29R/G99W = 14 nM (1 of 6 replicates)
* F27Y/T28S/S31E = nd (0 of 6 replicates)
* G26H/T28N/G61A/A101T = 2.4 nM (6 of 6 replicates)
* T28D/G61A/A101K = nd (0 of 6 replicates)
* S31E/G61T/A101F/S107V = 560 pM (1 of 6 replicates)